This experiment deals with Bifunctional epoxide hydrolase 2 (Homo sapiens, UniProt P34913). The experiment can be described thus: Inhibition of human soluble epoxide hydrolase in cell free system.

Amino acid sequences for entries named in this document (tags omitted).
UniProt P34913, whole entry: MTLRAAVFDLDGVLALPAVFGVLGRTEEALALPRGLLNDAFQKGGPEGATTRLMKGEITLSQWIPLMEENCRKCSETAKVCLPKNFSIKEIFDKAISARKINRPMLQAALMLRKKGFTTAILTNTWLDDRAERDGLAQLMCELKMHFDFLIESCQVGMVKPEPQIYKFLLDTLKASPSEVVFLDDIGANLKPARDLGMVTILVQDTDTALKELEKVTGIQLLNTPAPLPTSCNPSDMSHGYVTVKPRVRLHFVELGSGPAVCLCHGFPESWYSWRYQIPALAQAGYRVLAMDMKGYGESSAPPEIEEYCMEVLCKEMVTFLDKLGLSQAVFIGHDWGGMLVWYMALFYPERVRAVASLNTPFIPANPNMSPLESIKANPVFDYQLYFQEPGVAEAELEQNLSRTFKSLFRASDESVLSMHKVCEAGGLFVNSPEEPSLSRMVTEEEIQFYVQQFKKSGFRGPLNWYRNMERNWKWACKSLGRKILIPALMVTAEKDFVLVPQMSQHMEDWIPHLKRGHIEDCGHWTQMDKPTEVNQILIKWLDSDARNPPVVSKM

Here are results for one compound from ChEMBL document CHEMBL1671815, “A practical use of ligand efficiency indices out of the fragment-based approach: ligand efficiency-guided lead identification of soluble epoxide hydrolase inhibitors” (J Med Chem, 2011).

Structures are written as SMILES.

For `N#Cc1ccc(C(=O)N[C@H]2C[C@@H]2c2ccccc2)cc1` (racemic), the IC50 (read-out: IC50) is 565 nM and the IC50 (read-out: pIC50 (converted)) is 562 nM.
